Our source for the Ki values is ChEMBL document CHEMBL1671828 (ACS Med Chem Lett, 2011).

The chains behind the UniProt entries cited, without tags or fusion partners.
UniProt Q63380, whole entry: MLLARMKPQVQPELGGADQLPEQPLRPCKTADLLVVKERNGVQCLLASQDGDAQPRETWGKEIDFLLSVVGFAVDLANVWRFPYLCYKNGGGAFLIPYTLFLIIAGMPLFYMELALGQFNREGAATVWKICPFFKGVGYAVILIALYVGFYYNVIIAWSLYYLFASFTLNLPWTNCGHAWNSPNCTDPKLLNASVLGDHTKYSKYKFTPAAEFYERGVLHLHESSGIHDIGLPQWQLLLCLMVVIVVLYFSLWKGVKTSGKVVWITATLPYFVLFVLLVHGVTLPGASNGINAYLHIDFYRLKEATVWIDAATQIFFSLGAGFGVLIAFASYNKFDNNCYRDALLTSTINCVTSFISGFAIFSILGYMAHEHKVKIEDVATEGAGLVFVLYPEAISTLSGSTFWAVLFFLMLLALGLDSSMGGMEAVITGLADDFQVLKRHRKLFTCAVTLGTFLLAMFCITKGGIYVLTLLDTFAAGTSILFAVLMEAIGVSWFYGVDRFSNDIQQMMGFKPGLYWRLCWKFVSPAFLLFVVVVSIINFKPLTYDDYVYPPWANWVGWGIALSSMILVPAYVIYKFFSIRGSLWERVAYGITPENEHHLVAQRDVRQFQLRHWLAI

The target of this test is Transporter (Rattus norvegicus, UniProt Q63380). Briefly: Displacement of [3H]nisoxetine from NET in Sprague-Dawley rat brain membranes. In kind it is cell membranes, Membrane.

Molecules are shown by their SMILES.

Regarding `COC(=O)[C@H]1[C@@H](OC(=O)c2ccccc2)C[C@@H]2CC[C@H]1N2C` [COCAINE], the affinity corresponds to a Ki of 3.3 µM.
